Test results: PubChem BioAssay AID1963576 (National Center for Advancing Translational Sciences (NCATS), 2024)
The list shows a part of the results, in another mix than the full data. Records with an inconclusive call do not appear. The source made the active and inactive calls. Calls come from the whole dose curve; as a rule, active = well fitted inhibition curve with a large enough effect; inconclusive = small, poorly fitted or top-dose-only effect; inactive = no such curve, though single readings can be large or run the other way.

Test: Primary qHTS assay for Inhibitors of ovarian cancer metastasis using an organotypic tumor microenvironment (TME) model.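 Note: plate controls were DMSO wells for no effect and tomatine positive control wells for full effect; nearly all actives have a fitted effect of over 65% in size.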
Details: SKOV3ip1-GFP adhesion/invasion on 3D omental model, fluorescence; at 45.8 µM (top of the series)
Text: PI: Ernst Lengyel MD., Ph.D. Department of Obstetrics and Gynecology, Section of Gynecologic Oncology University of Chicago Medicine, Chicago, Illinois. The tumor microenvironment (TME) is a key determinant of metastatic efficiency. We performed a quantitative high-throughput screen (qHTS) of diverse medicinal chemistry tractable scaffolds (44,420 compounds) and pharmacologically active small molecules (386 compounds) using a layered organotypic, robust assay representing the ovarian cancer metastatic TME. This 3D model contains primary human mesothelial cells, fibroblasts, and extracellular matrix, to which fluorescently labeled ovarian cancer cells are added. Initially, 100 compounds inhibiting ovarian cancer adhesion/invasion to the 3D model in a dose-dependent manner were identified. […]
PROTOCOL TABLE (as described by Inglese J, Shamu CE and Guy RK. 2007) SEQUENCE No. (e.g., 1, 2, 3, etc.); […] […] 11; Detection; Fluorescence, excitation filter 488 nm, emission filter 509 nm. […] The number of GFP-labeled cells analyzed using a fluorescent cytometer TTP LabTech Acumen eX3 using 488 nm excitation filter and 509 nm emission filter. […] Yasgar A, Shinn P, Jadhav A, Auld DS, Michael S, Zheng W, Austin CP, Inglese J and Simeonov A, Compound Management for Quantitative High-Throughput Screening. […]
In the case of CCn1c(=O)n([C@@H]2CCN(CC3CCCCCCC3)C[C@@H]2CO)c2ccccc21, the activity change, negative = inhibition is reported as inactive: -19.7%.
